# Antibody variant affinities, Ab-95 light chain, assay 2

Values reported by Engelhart et al. 2022, doi:10.1038/s41597-022-01779-4 (FLAb copy).

Target peptide (SARS-CoV-2 spike, HR2 region): PDVDLGDISGINAS

The variants keep the heavy chain, the linker and the frameworks of Ab-95 (scFv order VH, a 15-residue (Gly4Ser)3 linker, VL).
VH: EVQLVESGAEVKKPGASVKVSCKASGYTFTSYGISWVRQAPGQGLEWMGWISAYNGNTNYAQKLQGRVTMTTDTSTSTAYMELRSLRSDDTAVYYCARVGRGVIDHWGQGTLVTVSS
VL: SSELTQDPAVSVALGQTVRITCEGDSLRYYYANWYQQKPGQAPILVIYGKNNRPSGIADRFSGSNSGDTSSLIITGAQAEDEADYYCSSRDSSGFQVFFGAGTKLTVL

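Phage display of a naive human antibody library on the peptide gave the parent. In library AAYL52, one, two or three CDR residues were substituted; doubles and triples were drawn at random. AlphaSeq pools MATa yeast showing the antibodies with MATalpha yeast showing the peptide. After mating in shaken culture at 30 °C for 16 h, diploids were selected and their barcode pairs sequenced. Each replicate has its own calibration line, from reference interactions of the BCL2 family. Each pool was mated in three replicate cultures.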

Each variant is given by its three light chain CDRs, as the data file delimits them; those of the parent are EGDSLRYYYAN, GKNNRPS, SSRDSSGFQVF.
Values are log10 of the apparent Kd in nM; lower means stronger binding.
Where no diploid with the target was found in that replicate, the entry reads "nd": below detection, most likely a poor binder, though not proof of it.
Empty control strains, which show no peptide, gave a signal in 28% of pairings with library AAYL52; the median was 3.91 and 95% of these signals were weaker than 2.90. No background was subtracted. The control count says in how many pairings with the empty strains this scFv gave a signal, with their mean in brackets.
In this assay the parent's reference entry averaged 2.31; its copy inside this library read 2.25.

CDR-L1 | CDR-L2 | CDR-L3 | log10 Kd (nM) by replicate | signal with controls
EGDSLRYYYAN | GKNNDPS | SDRFSSGFQVF | 4.89 / 4.07 / 2.46 | 3/9 (4.02)
EGDYLRYYYAN | GKNWDPS | SSRDSSGFQVF | 3.86 / 3.89 / nd | 4/9 (3.38)
EGDSLRYYYAH | LKNNRPQ | SSRDSSGFQVF | 3.96 / 2.56 / nd | 1/9 (2.97)
EGASLRYYYAN | GKNNRPS | SSRDSCVFQVF | 2.66 / 2.44 / 2.52 | 6/9 (3.54)
CGDSLRYYYAN | GKNNRPS | SSRDSSGFKMF | 2.58 / 2.96 / 2.71 | 0/9
EGDSLRVYYAN | GKNNRPS | SSRDLPGFQVF | 3.25 / 3.18 / nd | 3/9 (4.87)
NGDSLRYYYAN | GGNNNPS | SSRDSSGFQVF | 3.22 / 3.06 / 2.38 | 2/9 (3.51)
EGDSLRYYLAN | GKNNRPS | SSRDSSGFQVF | 2.85 / 2.48 / 1.66 | 3/9 (3.65)
EGDHLRYYMAN | GKNNRPS | HSRDSSGFQVF | 3.09 / 3.23 / 2.89 | 1/9 (3.91)
EGDSLRYYYAM | GKNNRPS | LSRDSSGFQVF | 4.44 / 3.15 / 3.26 | 4/9 (3.85)
EIDSLRYYYAN | GKKNRPS | SSRDSSPFQVF | 3.62 / nd / nd | 5/9 (4.69)
EGDSLRYYNAN | GKNNRPP | SSRDSSGFQVG | 2.44 / 1.97 / 1.52 | 4/9 (3.89)
EGDSLRYYYAN | GKNNRPS | SGRESSGFQVS | 2.74 / 2.24 / 2.44 | 1/9 (4.70)
EGPSLRYYYAN | LKNNRPS | SSRNSSGFQVF | nd / nd / nd | 0/9
EGDSLRYYYAN | GKNSRPS | SSRDSSGFQVY | 2.63 / 2.21 / 2.26 | 2/9 (4.33)
EGDSLRYYDAN | GKNNRPS | SQRDSSGTQVF | 3.65 / 4.24 / nd | 0/9
EGDSLRYYFAN | GKNWRPS | SRRDSSGFQVF | nd / 5.21 / nd | 4/9 (4.35)
GGDRLRYYYAN | GWNNRPS | SSRDSSGFQVF | 3.66 / nd / 3.02 | 7/9 (4.47)
EGTKLRYYYAN | GKNNRPS | SSRDSSGFQVF | nd / nd / 3.30 | 1/9 (2.98)
EGESLRYYYAN | GKNNRPS | SMRDSSGFEVF | 2.90 / 2.46 / 2.38 | 0/9
EGDSLRYAYAN | GKNNRPS | SSRDSSRFQYF | 1.56 / 1.38 / 1.04 | 4/9 (4.36)
CGDSLRYYYAN | GKNNYGS | SSRDSSGFQVF | nd / 3.14 / 4.03 | 3/9 (3.82)
EGDLLRYEYAN | GKNNRPS | SSKDSSGFQVF | 3.64 / 3.50 / 3.74 | 3/9 (4.64)
EGDSLRYYDAN | GWNNRTS | SSRDSSGFQVF | 3.07 / 3.58 / 3.76 | 1/9 (3.73)
EGDSLRYDYAN | GKNNRPS | SVRDGSGFQVF | 1.75 / 1.56 / 1.13 | 3/9 (3.76)
EGLSLRYYYAN | GRNNRPS | SSRDSSGFPVF | 3.42 / 3.10 / 2.95 | 2/9 (2.75)
EGRSLRYYYAN | GKNNRPS | SSRDSSGFKSF | nd / 3.04 / 3.58 | 2/9 (4.14)
EDDSLRYFYAN | GKNNEPS | SSRDSSGFQVF | 2.63 / 3.26 / 3.00 | 6/9 (3.66)
EGDSLRYYYAN | KKNNRPF | HSRDSSGFQVF | 5.34 / nd / nd | 2/9 (3.69)
EGDSLFYYYAN | GSNNRPS | SSYDSSGFQVF | 4.46 / nd / nd | 2/9 (4.31)
EGDSLAYYYAN | GKNNRPS | SHADSSGFQVF | 2.51 / 2.25 / 2.51 | 1/9 (4.32)
EGDSLRYYYAN | SKNHRPS | SSRDSSGFQVI | 3.12 / 2.72 / 3.48 | 2/9 (3.29)
EGDSLRYYYAN | GKNNRPS | ASRDSSGFQVF | 2.85 / 2.61 / 2.41 | 1/9 (3.97)
EGDSFRYYYAN | GENNRPS | SSRDSMGFQVF | 3.39 / 2.92 / 3.76 | 2/9 (3.33)
EGDSLRYYYAW | WKNNRPS | SSRDSEGFQVF | nd / 4.00 / nd | 4/9 (3.38)
MGDSYRYYYAN | GKNNRFS | SSRDSSGFQVF | nd / nd / nd | 1/9 (3.85)

For reference, 4 entries of the list once more:

CDR-L1	CDR-L2	CDR-L3	log10 Kd (nM) by replicate	signal with controls
EGDSLRYYYAW	WKNNRPS	SSRDSEGFQVF	nd / 4.00 / nd	4/9 (3.38)
EDDSLRYFYAN	GKNNEPS	SSRDSSGFQVF	2.63 / 3.26 / 3.00	6/9 (3.66)
EGDSLRVYYAN	GKNNRPS	SSRDLPGFQVF	3.25 / 3.18 / nd	3/9 (4.87)
EGDSLRYYYAN	GKNNRPS	SGRESSGFQVS	2.74 / 2.24 / 2.44	1/9 (4.70)